Results reported in patent publication US20250263426A1, “PDE4B INHIBITOR AND USE THEREOF” (Xizang Haisco Pharmaceutical Co., Ltd., priority 2022, published 2025).

Amino acid sequences for entries named in this document (tags omitted). Residues count along the entry.
UniProt Q08499, 303-809, stated change not applied: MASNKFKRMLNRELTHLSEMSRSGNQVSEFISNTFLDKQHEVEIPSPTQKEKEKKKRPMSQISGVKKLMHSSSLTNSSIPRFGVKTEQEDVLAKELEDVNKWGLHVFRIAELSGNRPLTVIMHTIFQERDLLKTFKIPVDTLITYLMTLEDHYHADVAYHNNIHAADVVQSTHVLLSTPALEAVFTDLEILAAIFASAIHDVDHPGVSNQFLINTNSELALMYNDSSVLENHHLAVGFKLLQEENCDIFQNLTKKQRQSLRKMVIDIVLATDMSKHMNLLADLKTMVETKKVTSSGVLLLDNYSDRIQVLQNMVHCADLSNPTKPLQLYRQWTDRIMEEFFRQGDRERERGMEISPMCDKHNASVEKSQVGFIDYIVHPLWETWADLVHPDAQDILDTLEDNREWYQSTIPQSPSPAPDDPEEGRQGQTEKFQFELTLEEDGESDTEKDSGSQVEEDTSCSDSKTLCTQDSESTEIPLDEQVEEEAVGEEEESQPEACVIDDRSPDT

Tests used:
PDE4D2 = PDE4D2 (Homo sapiens (Human), UniProt Q08499); test: Effect of compounds on PDE4D2 activity (fluorescence polarization kit); format: biochemical
Procedure: FP was usually represented by mP value.
[formula] • I∥ (S520): fluorescence intensity in parallel direction • I⊥ (P520): fluorescence intensity in perpendicular direction • G: G factor=1
[formula] • mP(sample): mP of the test compound in a reaction well • mP(negative control): mP in the negative control well • mP(positive control): mP in the positive control well
According to the calculated inhibition rate at each concentration, the IC50 value of each compound was calculated by GraphPad Prism 8 software.

[1] = test system: human peripheral blood mononuclear cells (TNF-α release); test: Inhibition of LPS-induced TNF-α release from human peripheral blood mononuclear cells in vitro; format: cell-based; details: hPBMC, 100 ng/mL LPS, 4 h
Procedure: 5. Detection of Inhibitory Activity of Compounds on the Release of Tumor Necrosis Factor-α (TNF-α) from Human Peripheral Blood Mononuclear Cells Induced by Lipopolysaccharide (LPS) In Vitro
Normal human peripheral blood which was anticoagulated (citric acid anticoagulation) was collected, and hPBMCs were prepared by Ficoll-Paque PLUS (Cytiva, Cat #17144002, density 1.077 g/mL). The concentration of hPBMC cells was adjusted to 0.25×10^6 cells/mL with RPMI1640 medium and inoculated into a 96-well plate in an amount of 50000 cells per well. Subsequently, different concentrations of drugs were added for pre-incubation for 1 h (the DMSO final concentration was 0.1%, and the positive and negative control wells had the same volume of RPMI1640 containing 0.1% DMSO). After the pre-incubation was complete, 100 ng/mL LPS (SIGMA, L2630) was added to the compound and positive control wells, and the negative control well had the same volume of RPMI1640 containing 0.1% DMSO. Incubation was carried out for 4 h in an incubator at 37° C. and 5% CO2. The cell supernatant was collected, and the content of TNF-α in the supernatant sample was detected by human TNF-α Elisa quantitative test kit (Sino Biological, Cat #KIT10602). The IC50 value was calculated using GraphPad Prism software.

In the case of `COC(=O)NCC1(Nc2nc(N3C[C@H]4CN(c5ccc6c(c5)CC6)C[C@H]4C3)nc3c2[S+]([O-])CC3)CCC1` (stereo partly drawn) [Compound 82-2], the IC50 (PDE4D2) is reported as 10 to 50 nM, the “Max inhibition (%)” value [1] is reported as 73.50% and the IC50 ([1]; relative IC50, read-out: Re IC50) is reported as 10 to 50 nM.
